Source: patent publication US20040127467A1, “Synthesis of pancratistatin prodrugs” (priority 2003, published 2004)

Substance: Manganese pancratistatin 7-O-phosphate [2i]
- water solubility (in words): poor water solubility
